For 57 molecules, activation results are on record in PubChem BioAssay AID504692 (The Scripps Research Institute Molecular Screening Center, 2011).

Chains of the proteins cited; added tags and fusions are not shown.
UniProt P47898, whole entry, looked up: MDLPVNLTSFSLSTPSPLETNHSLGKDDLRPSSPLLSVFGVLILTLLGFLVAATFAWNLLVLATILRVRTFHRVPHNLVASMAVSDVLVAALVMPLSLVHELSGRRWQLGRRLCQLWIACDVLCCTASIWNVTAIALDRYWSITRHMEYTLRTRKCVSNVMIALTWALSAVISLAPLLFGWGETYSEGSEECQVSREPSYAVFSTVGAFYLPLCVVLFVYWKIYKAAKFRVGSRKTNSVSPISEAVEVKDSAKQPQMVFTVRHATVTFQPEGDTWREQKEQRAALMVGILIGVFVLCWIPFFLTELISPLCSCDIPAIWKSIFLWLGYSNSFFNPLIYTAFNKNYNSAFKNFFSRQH

SMILES strings stand for the structures. Only a part is listed here, and it is no random draw. Calls of active or inactive are those of the source. No stated cut-off is given here; in the data, active means activation mostly above about 9.5% (no sharp cut-off); inactive means mostly below about 7.6%.

The assay deals with 5-hydroxytryptamine receptor 5A (Homo sapiens) (UniProt P47898). The assay can be described thus: HTR5A agonists in luminescence cell assay, primary screen, counter-screen for OPRM1-OPRD1 heterodimer agonist project, full-deck HTS (AID 504692).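 Further: 0% = cells with vehicle only and 100% = reference agonist.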 The note with it: cell-based, at 9.3 µM, active compounds read high.
Take `Cc1ccc(C(=O)OC2CN3CCC2CC3)cc1` (configuration not stated): the activation was inactive: -1.4%.

Regarding `CCN(CC)C(=O)Cn1c(=O)n(C)c2ccccc21`, the activation was inactive: -3.27%. Next, `CC1CCC(C(C)C)C(OP(=O)(Nc2ccccn2)c2ccccc2)C1` (configuration not stated): inactive: 1.21%; `CCN(CC)c1ccc(NC(=O)Cn2c(C(C)NC(=O)c3ccccc3)nc3ccccc32)cc1` (configuration not stated): inactive: -2.62%; `CN1CN(c2ccccc2)C2(CCN(CCCSc3ccccc3NC(=O)/C=C/c3ccccc3)CC2)C1=O`: inactive: -3.57%. As for `COc1ccc(Cc2nc3ccccc3n2CC(=O)N/N=C/c2ccc(C)cc2O)cc1OC`, the figure is inactive: 0.28%. As for `COc1cccc(C(=O)N2CCn3c2nc2ccccc23)c1`, the figure is inactive: 2.25%. For the molecule `CCN(c1ccccc1)S(=O)(=O)c1ccc(OC)c(NC(=O)Cn2cnc3c2c(=O)n(C)c(=O)n3C)c1`, the activation is inactive: -1.04%. `O=C(/C=C/c1ccccc1)OC1CN2CCC1CC2` (configuration not stated): the activation was inactive: 1.64%. As for `COc1cccc(NC(=O)Cn2c(SCC(=O)N3CCOCC3)nc3ccccc32)c1`, the figure is inactive: 1.74%; as for `CC1CC(C)CN(Cc2nc3c(c(=O)n(C)c(=O)n3C)n2CCN2CCOCC2)C1` (configuration not stated), inactive: 5.73%; as for `COc1ccc(CN(C)C(=O)Cn2cnc3c(SC)nc(N)nc32)cc1OC`, inactive: -2.57%. Regarding `O=S(=O)(c1ccc(Cl)c(Cl)c1)N1CCc2nc3ccccc3n2CC1`, the activation was inactive: 2.57%. `Cn1c(=O)c2c(ncn2CC(=O)N/N=C/C=C/c2ccccc2)n(C)c1=O`: the activation is inactive: 0.96%. As for `CCCC1OP(=O)(Nc2ccccc2)OCC1CC` (configuration not stated), the figure is inactive: -0.53%; as for `O=S(=O)(Nc1ccc2c(c1)nc1n2CCN(Cc2ccccc2)C1)c1ccccc1`, inactive: 7.35%. Regarding `O=S(=O)(c1ccc(Br)cc1)N1CCn2c(nc3ccccc32)C1`, the activation was inactive: 4.15%. Next, `CCN1C(=O)CC(N2CCC(Nc3ccc(OC)cc3)CC2)C1=O` (configuration not stated): inactive: -2.47%; `CC(=O)Nc1ccc(NC(=O)C2CC(=O)Nc3nc4ccccc4n32)cc1` (configuration not stated): inactive: -2.05%; `Cn1c(=O)c2ncn(CC(=O)NCCOc3ccc(C(C)(C)C)cc3)c2n(C)c1=O`: inactive: 1.88%. Regarding `O=C(CSc1nc2ccccc2n1CC(=O)NCc1ccccc1)NCc1ccco1`, the activation is inactive: -1.14%. As for `COc1ccc(Cl)cc1NC(=O)Cn1c(NCCO)nc2ccccc21`, the figure is inactive: 5.06%. Next, `O=C(Cn1cnc2c(OCc3ccccc3)ncnc21)N[C@H](CO)Cc1cc2ccccc2[nH]1`: inactive: -0.19%.

For `CC(=O)NC(SC(=S)N(C)C)C(Cl)(Cl)Cl` (configuration not stated), the activation was inactive: 1.71%. As for `O=[N+]([O-])c1ncn(CCn2cnc([N+](=O)[O-])n2)n1`, the figure is inactive: -4.86%.

As to `O=[N+]([O-])c1ccc(O)c(/C=N/Nc2ccc([N+](=O)[O-])cc2[N+](=O)[O-])c1`, the activation was inactive: 2.55%. As for `CCOC(=O)C1=C(Cn2cnc3ccccc32)NC(=O)NC1c1cc(C)ccc1C` (configuration not stated), the figure is inactive: 5.67%; as for `O=C(Cn1cnc2c(OCc3ccccc3)ncnc21)NCc1ccc2[nH]ccc2c1`, inactive: 6.29%; as for `CCn1nccc1C(=O)Nc1nc2ccccc2n1CCN1CCCCC1`, inactive: 3.64%.

As for `N=c1n(CCN2CCOCC2)c2ccccc2n1CC(=O)c1ccc(Cl)c(Cl)c1`, the activation was inactive: -1.19%. As for `Cc1nc2cc(C(F)(F)F)ccc2n1C1CCN(Cc2nnnn2Cc2cccs2)CC1`, the figure is inactive: -2.09%. As for `O=C(Cn1c(=O)n(CC2CS2)c2ccccc21)N1CCCCC1` (configuration not stated), the activation was inactive: 0.15%. With `CS(=O)(=O)Cc1nc2ccccc2n1CC(=O)Nc1cccc(S(=O)(=O)N2CCCC2)c1`, the activation was inactive: 1.98%. For the molecule `CCOc1ccc(NC(=O)N2CCC(n3c(=O)[nH]c4ccccc43)CC2)cc1`, the activation was inactive: 8.1%.

Take `COCC(C)NC(=O)Cn1c(SCc2ccccc2)nc2ccccc21` (configuration not stated): the activation was inactive: 1.61%.

Regarding `O=[As](O)(c1ccccc1)c1ccc(O)cc1`, the activation is inactive: 3.5%. With `CC1CCCC(NC(=O)Cn2c(Cl)nc3c2c(=O)n(C)c(=O)n3C)C1C` (configuration not stated), the activation was inactive: 4.17%.

As to `O=C(Cn1cnc2c(NCc3ccccc3)ncnc21)NCc1ccccc1`, the activation was inactive: -2.05%.

As for `Cc1nc2ccc(S(=O)(=O)NC(C(=O)N3CCn4c3nc3ccccc34)C(C)C)cc2s1` (configuration not stated), the activation was inactive: 0.46%. As for `CCN(CC)CCn1c(NC(=O)c2ccccc2O)nc2ccccc21`, the figure is inactive: 2.43%; as for `CN(C)C(=O)Cn1c(SCC(=O)NC2CCCCC2)nc2ccccc21`, inactive: 1.17%; as for `CC(=O)Nc1ccc2c(c1)nc1n2CCN(C(C)c2ccccc2)C1` (configuration not stated), inactive: -0.2%. Next, `O=C(Nc1ccccc1Cl)N1CCn2c(nc3ccccc32)C1`: inactive: 2.62%; `C(Cc1nn[nH]n1)Cc1nn[nH]n1`: inactive: -0.65%. Next, `Cn1c(=O)[nH]c(=O)c2c1nc(CN(Cc1ccccc1)Cc1ccccc1)n2CCN1CCOCC1`: inactive: 2.5%; `COc1ccc(CCNC(=O)Cn2cnc3c2c(=O)n(C)c(=O)n3C)cc1OC`: inactive: 6%. In the case of `COc1ccc(C(=O)N2CCn3c2nc2ccccc23)cc1`, the activation was inactive: 8.8%. As for `N=c1n(CCO)c2ccccc2n1CCN1CCCCC1`, the figure is inactive: -2.58%. As for `Nc1ccc([As](=O)(O)c2ccc([N+](=O)[O-])cc2)cc1`, the figure is inactive: -2.89%; as for `CSCC[C@H](NC(=O)N1CCn2c1nc1ccccc12)C(=O)NCc1ccc(F)cc1`, inactive: -2.6%. Next, `COc1cc(C(=O)OCCn2c(=O)c3c(ncn3CCN(C)C)n(C)c2=O)cc(OC)c1OC`: inactive: 3.25%. Turning to `O=C(Cn1c(CC(=O)N2CCCC2)nc2ccccc21)NCc1ccccc1`, the activation was inactive: -0.46%. As for `Cc1ccc2c(c1)C1CN(C)CCC1N2C(=O)/C=C/c1ccc2c(c1)OCO2` (configuration not stated), the figure is inactive: 3.43%. As for `COCCOC(=O)C1=C(C)N=C2SCCC(=O)N2C1/C=C/c1ccccc1` (configuration not stated), the figure is inactive: -4.05%; as for `O=C(Nc1cccc(F)c1)N1CCC(n2c(=O)[nH]c3ccccc32)CC1`, inactive: 3.07%; as for `COc1ccc(N2C(=O)CC(N3CCC(n4c(=O)[nH]c5ccccc54)CC3)C2=O)cc1` (configuration not stated), inactive: 4.19%. `CC(C)C[C@H](NC(=O)N1CCn2c1nc1ccccc12)C(=O)N[C@@H](Cc1ccccc1)C(=O)O`: the activation is inactive: 0.27%.
